Results published in ChEMBL document CHEMBL5523738, “Lipid Trolling to Optimize A3 Adenosine Receptor-Positive Allosteric Modulators (PAMs)” (J Med Chem, 2024).

By UniProt entry, the sequences of proteins in these tests, tags left out.
UniProt P0DMS8, whole entry: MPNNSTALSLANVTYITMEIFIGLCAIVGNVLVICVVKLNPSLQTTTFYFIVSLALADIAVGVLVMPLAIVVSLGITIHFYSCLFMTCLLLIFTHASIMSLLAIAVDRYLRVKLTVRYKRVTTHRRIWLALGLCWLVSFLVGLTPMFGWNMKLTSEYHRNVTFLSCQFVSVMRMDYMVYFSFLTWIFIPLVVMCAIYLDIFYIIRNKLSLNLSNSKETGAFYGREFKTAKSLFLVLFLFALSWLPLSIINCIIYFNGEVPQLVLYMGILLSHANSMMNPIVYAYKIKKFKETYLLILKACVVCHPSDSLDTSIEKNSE

Molecular target: Adenosine receptor A3 (Homo sapiens) (UniProt P0DMS8)
Test: Positive allosteric modulation of human A3 adenosine receptor transfected in HEK293 cell membranes assessed as potentiation of 5-(2-chloro-6-((3-iodobenzyl)amino)-9H-purin-9-yl)-3,4-dihydroxy-N-methyltetrahydrofuran-2-carboxamide induced [35S]GTP-gammaS binding by measuring fold increase in maximal efficacy of agonist at 0.1 uM pretreated for 1 hr followed by agonist addition and measured after 2 hrs by liquid scintillation counting method relative to control
Settings: Membrane, filed as positive allosteric modulator, time 3.0 hrs

Clc1ccc(Nc2nc3ccccc3c3nc(C4CCCCC4)[nH]c23)cc1Cl
fold change (FC): 2
